# Assay results taken from patent US20040147478A1, “Combination chemotherapy” (priority 2002, published 2004).
# Where two headings read alike, the source gives them in different places.
# Tests used:
# [1] = test system: COLO-205 human colon carcinoma xenografts
# [2] = test system: COLO-205 human colon carcinoma xenografts; remark: listed apart in the source
# [3] = test system: COLO-205 human colon carcinoma xenografts; remark: listed apart in the source
compound,measurement,setting,value
"O=C(NOC[C@H](O)CO)c1ccc(F)c(F)c1Nc1ccc(I)cc1F [Compound A, N-[(R)-2,3-Dihydroxy-propoxy]-3,4-difluoro-2-(2-fluoro-4-iodo-phenylamino)-benzamide]",CR (complete response),[1]; Compound A 3.13 mg/kg QD alone,6/10
same,Non-specific Deaths,[1]; Compound A 3.13 mg/kg QD alone,0/10
same,PR (partial response),[1]; Compound A 3.13 mg/kg QD alone,3/10
same,Tumor Free (day 118),[1]; Compound A 3.13 mg/kg QD alone,0/10
same,CR (complete response),[1]; Compound A 6.25 mg/kg QD alone,9/10
same,Non-specific Deaths,[1]; Compound A 6.25 mg/kg QD alone,0/10
same,PR (partial response),[1]; Compound A 6.25 mg/kg QD alone,1/10
same,Tumor Free (day 118),[1]; Compound A 6.25 mg/kg QD alone,1/10
same,Non-specific Deaths,[1]; Compound A 25 mg/kg QD alone,8/10
same,CR (complete response),[2]; Compound A 3.13 mg/kg qd alone,1/10
same,Non-specific Deaths,[2]; Compound A 3.13 mg/kg qd alone,0/10
same,PR (partial response),[2]; Compound A 3.13 mg/kg qd alone,3/10
same,Tumor Free (day 112),[2]; Compound A 3.13 mg/kg qd alone,0/10
same,Non-specific Deaths,[2]; Compound A 6.25 mg/kg qd alone,1/10
same,PR (partial response),[2]; Compound A 6.25 mg/kg qd alone,2/10
same,Tumor Free (day 112),[2]; Compound A 6.25 mg/kg qd alone,1/10
same,Non-specific Deaths,[2]; Compound A 25 mg/kg qd alone,4/10
same,CR (complete response),[3]; Compound A 3.13 mg/kg qd alone,7/10
same,Non-specific Deaths,[3]; Compound A 3.13 mg/kg qd alone,0/10
same,PR (partial response),[3]; Compound A 3.13 mg/kg qd alone,2/10
same,Tumor Free (day 129),[3]; Compound A 3.13 mg/kg qd alone,0/10
same,CR (complete response),[3]; Compound A 6.25 mg/kg qd alone,8/10
same,Non-specific Deaths,[3]; Compound A 6.25 mg/kg qd alone,1/10
same,PR (partial response),[3]; Compound A 6.25 mg/kg qd alone,1/10
same,Tumor Free (day 129),[3]; Compound A 6.25 mg/kg qd alone,1/10
same,Non-specific Deaths,[3]; Compound A 25 mg/kg qd alone,8/10
